For 79 molecules, activation results are on record in PubChem BioAssay AID624202 (National Center for Advancing Translational Sciences (NCATS), 2012).

Only a part is listed here, and it is no random draw. The source made the active and inactive calls. Calls come from the whole dose curve; as a rule, active = well fitted activation curve with a large enough effect; inconclusive = small, poorly fitted or top-dose-only effect; inactive = no such curve, though single readings can be large or run the other way.

This assay in a line: qHTS Assay to Identify Small Molecule Activators of BRCA1 Expression. Note: nearly all actives have a fitted effect of over 80% in size. The following applies: MCF7-BRCA1-FFLuc reporter, luminescence, 48 h, scaled: vehicle 0%, 10 µM genistein 100%; at 46.1 µM (top of the series) unless noted.
In the case of `O=Cc1ccc(NCCCl)cc1`, the activation was inactive: -4.57%.

On to `COc1cc(I)ccc1[As](=O)(O)O`, for which the activation is inactive: 30.4%.

In the case of `COc1ccc2nc(NP(=O)(c3ccccc3)c3ccccc3)sc2c1`, the activation is inactive: -35.6%.

In the case of `O=P1(N(CCCl)CCCl)OCCCN1CCCl` (centres undefined), the activation was inactive: 15.1%.

`O=P1(N(CCCl)CCCl)Nc2ccccc2N1`: the activation is inactive: 3.71%.

For `Cc1cc(=O)[nH]c(N[N+](=O)[O-])n1`, the activation is inactive: -0.376%.

Regarding `O=C(OC1CN2CCC1CC2)C12CC3CC(CC(C3)C1)C2` (centres undefined), the activation was inactive: -1.18%.

Turning to `Cc1c2c(nc3ccccc13)SC(C(Cl)Cl)C2` (centres undefined), the activation is inactive: 22.6%.

As for `COc1ccc(N/C(=N/P(=O)(N2CCOCC2)N2CCOCC2)N2CCOCC2)cc1`, the activation is inactive: -14.4%.

On to `O=[N+]([O-])c1cc(Oc2ccc([N+](=O)[O-])cc2C(F)(F)F)cc([N+](=O)[O-])c1`, for which the activation is inactive: -49.4%.

As to `O=C(Nc1ccncc1[N+](=O)[O-])c1ccc([N+](=O)[O-])cc1[N+](=O)[O-]`, the activation is inactive: -21.6%.

For the molecule `O=C(COc1ccccc1)OC1CN2CCC1CC2` (centres undefined), the activation is inactive: 16.8%.

With `O=C(O)C(=O)c1ccc(N(CCCl)CCCl)cc1`, the activation is inactive: 9.08%.

For the molecule `COC(=O)C1(C)COP(=O)(N2CCCC2)OC1` (centres undefined), the activation is inactive: 14.4%.

As to `COP1(=S)c2c(C)nn(CCC#N)c2N=C(c2ccc(F)cc2)N1C` (centres undefined), the activation was inactive: 3.77%.

As for `CCOP(=O)(Nc1cccc2cccnc12)OCC`, the activation was inactive: 11.5%.

Turning to `CCC(C)N(CC(C)C)C(=S)SC(NC(C)=O)C(Cl)(Cl)Cl` (centres undefined), the activation is inactive: -44.5%.

In the case of `CCOC(=O)c1ccc(NC(=O)C(C)(CCl)SC)cc1` (centres undefined), the activation is inactive: 0%.

`CSc1ccc(Nc2c([N+](=O)[O-])cc([N+](=O)[O-])cc2[N+](=O)[O-])cc1`: the activation is inactive: -60.6%.

In the case of `O=C(OC1CN2CCC1CC2)c1cccc([N+](=O)[O-])c1` (centres undefined), the activation is inactive: -1.37%.

Regarding `Cc1cc(SC(NC(=O)c2ccccc2)C(Cl)(Cl)Cl)nc(C(C)C)n1` (centres undefined), the activation was inactive: -20.5%.

For `CCCCOc1ccc(C(=O)NCC2(N3CCCCC3)CCCCC2)cc1OC`, the activation is inactive: -72.1%.

Take `COP(=O)(OC)N1CC1c1ccccc1` (centres undefined): the activation was inactive: 7.79%.

Regarding `CC1CCNP(=O)(N(CCCl)CCCl)O1` (centres undefined), the activation is inactive: 0.93%.

Consider `O=C(O)C(O)c1ccc(N(CCCl)CCCl)cc1` (centres undefined), for which the activation was inactive: 2.98%.

With `CCOC(=O)Nc1ccc([As](=O)(O)O)c(O)c1`, the activation was inactive: -0.99%.

For the molecule `O=[N+]([O-])c1ccc(Nc2ccc(Oc3ccc([N+](=O)[O-])cc3[N+](=O)[O-])cc2)c([N+](=O)[O-])c1`, the activation was inactive: -6.63%.

Take `Cc1cc(SC(NC=O)C(Cl)(Cl)Cl)ncn1` (centres undefined): the activation was inactive: 3.16%.

In the case of `O=P(Nc1ccccn1)(c1cccc2ccccc12)c1cccc2ccccc12`, the activation was inactive: -25.1%.

With `CCOC(=O)Nc1cccc([As](=O)(O)O)c1`, the activation was inactive: -19%.

Regarding `CCCC1OP(=O)(Nc2ccccc2)OCC1CC` (centres undefined), the activation was inactive: -5.45%.

With `O=C(/C=C/c1ccccc1)OC1CN2CCC1CC2` (centres undefined), the activation was inactive: 29.8%.

Regarding `CN(C)C1(CNC(=O)c2ccc(S(C)(=O)=O)cc2)CCCCC1`, the activation was inactive: -3.15%.

In the case of `Cc1ccc(C(=O)OC2CN3CCC2CC3)cc1` (centres undefined), the activation was inactive: 11.6%.

For the molecule `CC1CCC(C(C)C)C(OP(=O)(Nc2ccccn2)c2ccccc2)C1` (centres undefined), the activation was inactive: -67.6%.

For `COc1cc([N+](=O)[O-])ccc1[N+](=O)[O-]`, the activation was inactive: -19.6%.

`Cc1nn(-c2ccccc2)c2c1P(=O)(N1CCOCC1)N(C)C(c1ccccc1)=N2` (centres undefined): the activation was inactive: 1.39%.

On to `Cc1ccc(OCC(=O)OC2CN3CCC2CC3)cc1` (centres undefined), for which the activation was inactive: -10.8%.

As for `O=[As](O)(c1cccs1)c1cccs1`, the activation was inactive: 0.0828%.

As to `NS(=O)(=O)c1cccc(NC(=O)COC(=O)C(O)(c2ccccc2)c2ccccc2)c1`, the activation is inactive: -15.9%.

For the molecule `O=P1(Nc2ccc(Br)cn2)COc2ccccc2OC1`, the activation is inactive: -7.45%.

Take `Nc1cccc([As](=O)(O)c2ccccc2)c1`: the activation was inactive: 20.4%.

For the molecule `O=P1(Nc2ncccn2)COc2ccccc2OC1`, the activation is inactive: -8.84%.

For the molecule `Cc1ccc(S(=O)(=O)N(CCCN)CCCc2c(C)nc(N)[nH]c2=O)cc1`, the activation was inactive: -4%.

For `CC(C)(C)C(=O)NC(Sc1ncccn1)C(Cl)(Cl)Cl` (centres undefined), the activation is inactive: 22%.

Take `Clc1n[nH]nc1-c1nn[nH][15n]1`: the activation was inactive: -1.95% [at 1.84 µM].

Turning to `O=P1(N(CCCl)CCCl)NCCC(C(F)(F)F)O1` (centres undefined), the activation is inactive: 7.5%.

Take `CCOP(=O)(Nc1ccc(C)cn1)OCC`: the activation is inactive: 1.64%.

For `CN(CCCl)Cc1cc(Cl)c(NC2=NCCN2)c(Cl)c1`, the activation is inactive: 0%.

On to `CCOP(=O)(NC(=NC(C)c1ccccc1)NC(C)c1ccccc1)OCC` (centres undefined), for which the activation is inactive: -42.7%.

For `CCC1=CC2Cc3nc4ccc(Cl)cc4c(N)c3C(C1)C2` (centres undefined), the activation was inactive: -63%.

With `O=P1(Nc2ccccn2)COc2ccccc2OC1`, the activation was inactive: 13.3%.

Regarding `CC1(CBr)Cn2c(nc3ccccc3c2=O)S1` (centres undefined), the activation was inactive: 3.48%.

`CN(C(=O)Cc1ccc(Cl)c(Cl)c1)[C@@H]1CCCC[C@H]1N1CCCC1`: the activation was inactive: 0%.

Regarding `CC(C)/C=N\N=C(\N)N[N+](=O)[O-]`, the activation was inactive: -3.22%.

On to `COc1ccccc1CNC(=O)COC(=O)C(O)(c1ccccc1)c1ccccc1`, for which the activation was inactive: -11.3%.

On to `Cc1cccc(OCC(=O)OC2CN3CCC2CC3)c1` (centres undefined), for which the activation is inactive: -2.14%.

For `O=[As](O)(c1cccc(O)c1)c1cccc(O)c1`, the activation is inactive: -0.63%.

Regarding `CS(=O)(=O)c1ccc(Cl)c(NC(=O)COC(=O)C(O)(c2ccccc2)c2ccccc2)c1`, the activation was inactive: -21.3%.

On to `O=[As](O)(O)c1cccnc1`, for which the activation is inactive: 17.9%.

As to `COc1cc(C(=O)NCC2(N3CCOCC3)CCCCC2)cc(Cl)c1OC(C)C`, the activation is inactive: -27.5%.

Take `O=C(OC1CN2CCC1CC2)c1ccc(Cl)cc1` (centres undefined): the activation is inactive: -0.167%.

In the case of `CCOP(=O)(Nc1cccc2ccccc12)OCC`, the activation was inactive: -0.87%.

On to `COc1cc(C2NCCC3(OCCO3)C2(C)C)cc(OC)c1OC` (centres undefined), for which the activation was inactive: 14%.

In the case of `CCCOP(=S)(Nc1nc(N)cc(=O)[nH]1)OCCC`, the activation is inactive: 19.3%.

Regarding `Cc1ccc(NCCc2c([N+](=O)[O-])cc([N+](=O)[O-])cc2[N+](=O)[O-])cc1`, the activation is inactive: -32.4%.

As to `Nc1cccc2c([As](=O)(O)O)cccc12`, the activation was inactive: 0.358%.

Regarding `O=C(O)COc1ccc([As](=O)(O)O)cc1[N+](=O)[O-]`, the activation is inactive: -2.5%.

Take `Nc1ccccc1[As](=O)(O)c1ccccc1`: the activation was inactive: 11.4%.

Take `CS(=O)(=O)c1cc([N+](=O)[O-])c2no[n+]([O-])c2c1`: the activation was inactive: -44.6%.

As for `O=P(Nc1nccs1)(Oc1ccccc1)Oc1ccccc1`, the activation was inactive: 0.447%.

As for `O=P(Nc1nccs1)(c1ccccc1)c1nc2ccccc2s1` (centres undefined), the activation was inactive: -55%.

As for `CCOP1(=S)c2c(C)nn(CCC#N)c2N=C(c2ccccc2F)N1C` (centres undefined), the activation was inactive: 2.16%.

In the case of `CN(C(=O)Cc1ccc(Cl)c(Cl)c1)[C@H]1CC[C@@]2(CCCO2)C[C@@H]1N1CCCC1`, the activation was inactive: 14.3%.

As to `O=[N+]([O-])c1ccc2c(c1)nnn2O`, the activation is inactive: -0.489%.

With `CN(C)C(=O)c1cc([N+](=O)[O-])cc2c1-c1c(cc([N+](=O)[O-])cc1[N+](=O)[O-])C2=O`, the activation was inactive: -90.6%.

Take `CCOP1(=S)c2c(C)nn(CCC#N)c2N=C(c2ccc(F)cc2)N1C` (centres undefined): the activation was inactive: -1.4%.

`CN(C(=O)Cc1ccccc1)[C@@H]1CC[C@]2(CCCO2)C[C@H]1N1CCCC1`: the activation is inactive: 23.1%.

Turning to `N#CCCN(C(=O)COC(=O)C(O)(c1ccccc1)c1ccccc1)c1ccc(F)cc1`, the activation was inactive: -29.2%.
